Earlier results on four substances are cited in patent US5480969A, “Antagonists of LHRH” (The Administrators of the Tulane Educational Fund, priority 1992, dated 1996).

The test system of this data set is rat mast cells. Conditions: cited from earlier work; for Histamine release ED50: Table V.

With “[N-Ac-D-2-Nal^1 ; D-pFPhe^2, D-Trp^3, D-Arg^6 ] LHRH [Nal-Arg]”, the “Histamine release ED50” value is 0.17 µg/mL.
With “[N-Ac-D-2-Nal^1, D-pClPhe^2, D-3-Pal^3, Arg^5, D-3-Pal^6, D-Ala^10 ] LHRH”, the “histamine release (in words)” value (background) is given as “undesirable”.
For “[N-Ac-D-2-Nal^1, D-pClPhe^2, D-3-Pal^3, Arg^5, D-Glu(AA)^6, D-Ala^10 ] LHRH [Nal-Glu]”, the “Histamine release ED50” value was 1.6 µg/mL.
Take “[N-Ac-D-2-Nal^1, D-pClphe^2, D-3-Pal^3, c-pzACAla^5, D-PicLys^6, ILys^8, D-Ala^10 ] LHRH [Analog 10 (Table III)]”: where the note is “Table III parent analogs from literature”, the “ED50 for hist. release” value was 49 ± 4.8 µg/mL.
